From ChEMBL document CHEMBL4706706, “Structure-activity relationship and mechanistic studies for a series of cinnamyl hydroxamate histone deacetylase inhibitors” (Bioorg Med Chem, 2021) come the findings set out here.

By UniProt entry, the sequences of proteins in these tests, tags left out.
UniProt Q13547, whole entry: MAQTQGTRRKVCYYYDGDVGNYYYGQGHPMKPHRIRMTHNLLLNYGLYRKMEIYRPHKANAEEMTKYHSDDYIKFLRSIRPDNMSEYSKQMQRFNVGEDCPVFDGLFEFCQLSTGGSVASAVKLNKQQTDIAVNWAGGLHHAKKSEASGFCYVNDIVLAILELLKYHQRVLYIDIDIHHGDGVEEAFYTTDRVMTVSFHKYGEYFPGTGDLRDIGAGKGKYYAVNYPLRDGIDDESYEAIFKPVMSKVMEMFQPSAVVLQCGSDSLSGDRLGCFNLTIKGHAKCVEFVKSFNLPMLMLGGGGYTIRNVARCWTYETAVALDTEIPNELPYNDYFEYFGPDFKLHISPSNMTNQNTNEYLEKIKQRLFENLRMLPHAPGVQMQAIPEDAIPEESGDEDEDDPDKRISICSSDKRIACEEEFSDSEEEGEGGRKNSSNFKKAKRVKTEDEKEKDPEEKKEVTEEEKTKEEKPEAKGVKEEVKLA

In the test the target is Histone deacetylase 1 (Homo sapiens, UniProt Q13547). Put plainly: Inhibition of recombinant human full-length C-terminal FLAG/His-tagged HDAC1 (1 to 482 residues) expressed in baculovirus infected Sf9 insect cells using RHKK(Ac)AMC as substrate preincubated for 5 to 10 mins followed by substrate addition and measured after 2 hrs by fluorescence assay.

As usually defined, the IC50 is the concentration needed to halve the response being measured. Turning to `O=C(/C=C/c1ccc(NC(=O)Nc2ccc(Cl)cc2)cc1)NO`, the IC50 came out at 3.26 µM.
